Source: PubChem BioAssay (Broad Institute)
RAD54 inh – RAD54 (human) branch migration inhibition. Q92698. RAD54 Holliday junction branch migration, FAM/BHQ fluorescence. inhibition, % at 10.4 µM. actives 0.14% (n = 360,000). AID 602329;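 active = mean normalized replicate activity at least 40 and at least half of replicates scoring 40 or more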;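 note: 0% = median of neutral control wells and 100% = median of positive control wells; inhibitors cause a drop in the FAM fluorescence signal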
PglD inh – inhibitors of Campylobacter jejuni PglD acetyltransferase; purified PglD enzyme, DTNB colorimetric CoA detection; inhibition, % at 12.5 µM; actives 0.098% (n = 360,000); AID 602405; in the data active = inhibition above about 16%, passing the limit was not always enough
INS-1E GSIS act – GLuc luminescence reporter in INS-1E cells, primary screen for activators of glucose-dependent secretion of insulin; INS-1E GLuc reporter insulin secretion, 2-3 h; activation, % at 16.6 µM; actives 0.61% (n = 370,000); AID 743287;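 active = lowest replicate activation of at least 40%, so every replicate reaches that level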;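 note: 0% = median of neutral control wells and 100% = median of IBMX positive control wells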
RAD52 anneal inh – RAD52 (human) annealing inhibition; P43351; recombinant RAD52 DNA annealing, FRET fluorescence; inhibition, % at 18.7 µM; actives 0.46% (n = 360,000); AID 651710;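 active = every replicate showing at least 50% inhibition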
CASP6 VEID inh – caspase-6 (human) enzyme inhibition | P55212 | purified caspase-6, Z-VEID-R110 cleavage fluorescence | inhibition, % at 12.5 µM | actives 0.53% (n = 350,000);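 active = mean inhibition across replicates at least about 35%, with every replicate also reaching that limit, limit read from the data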;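 note: 0% = median of neutral control wells and 100% = no fluorescence left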
Yeast UUG start – modulators of start codon recognition fidelity in yeast; AID 602363; activity score, % at 18.7 µM; S. cerevisiae UUG-firefly luciferase reporter, luminescence/redox ratio; 0.13% of 350,000 active;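 active = replicate mean at a twofold rise or more, about +100% in these data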;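 note: firefly luciferase made from a UUG start codon reports start codon fidelity; reporter light over untreated wells divided by growth signal over untreated wells; some hits fall short of that in this replicate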
* marks the source's active call; other numbers are inactive results; · = not tested or not shown. In the library only some 1.5% were active in any assay of this set; here they are far more common.

Assay codes: A = RAD54 inh; B = PglD inh; C = INS-1E GSIS act; D = RAD52 anneal inh; E = CASP6 VEID inh; F = Yeast UUG start
CCc1nc(N2[C@H](CO)[C@H](c3ccccc3-c3ccc(F)cc3)[C@@H]2C#N)sc1C
  A: ·; B: ·; C: -7; D: 60*; E: -4; F: ·

CCC(=O)N1[C@@H](C#N)[C@H](c2ccccc2-c2ccccc2)[C@@H]1CO
  A: ·; B: ·; C: 6; D: 71*; E: -3; F: ·

Cc1cccc(-c2cc(NCCc3cccnc3)n3nccc3n2)c1
  A: -4; B: -4; C: ·; D: 2; E: -6; F: -18

O=C1c2ccccc2NC(c2cccc(O)c2)N1c1ccccc1 (configuration not stated)
  A: -5; B: -1; C: 25; D: -3; E: 2; F: -12

COc1ccc(NC(=O)C2CC(=O)OC23CCCCC3)cc1 (configuration not stated)
  A: 10; B: 5; C: ·; D: ·; E: ·; F: -15

O=C1CC(C(=O)Nc2ccc(Br)cc2)C2(CCCC2)O1 (configuration not stated)
  A: ·; B: ·; C: 13; D: -5; E: 39*; F: ·

COc1cc(/C=C/C(=O)OCC(=O)NCCc2ccccc2)ccc1OC(F)F
  A: -5; B: 5; C: 61*; D: -51; E: 0; F: -3

COc1cc(/C=C/C(=O)OCC(=O)NCCc2ccc(F)cc2)ccc1OC(F)F
  A: -13; B: 9; C: ·; D: -17; E: 0; F: -14

COc1cc(/C=C/C(=O)OCC(=O)NCc2cccs2)ccc1OC(F)F
  A: ·; B: ·; C: 46*; D: ·; E: ·; F: ·

CO[C@H]1CN(C)C(=O)c2cc(NC(C)=O)ccc2OC[C@@H](C)N(CC2CC2)C[C@H]1C
  A: 2; B: 1; C: 3; D: -1; E: 4; F: -11

Following part.
Assay codes: A = RAD54 inh; B = PglD inh; C = INS-1E GSIS act; D = RAD52 anneal inh; E = CASP6 VEID inh; F = Yeast UUG start
Clc1ccc2c(c1)-c1ccccc1C1=NCCN12
  A: ·; B: ·; C: ·; D: 48; E: -5; F: ·

Brc1ccc2c(c1)-c1ccccc1C1=NCCN12
  A: 81*; B: 3; C: ·; D: 35; E: 0; F: -42

O=C(C1CCOCC1)N1CC[C@@H]2[C@H]1c1cc(-c3cccc(F)c3)ccc1N[C@@H]2CO
  A: -12; B: 9; C: -2; D: -43; E: -2; F: -14

O=C(O)C1Cc2c([nH]c3ccccc23)C(c2ccc3c(c2)OCO3)N1 (configuration not stated)
  A: -12; B: 0; C: 46*; D: -16; E: 0; F: -15

O=C1Nc2cc(Cl)cnc2N2CCCC12 (configuration not stated)
  A: -10; B: ·; C: -3; D: -18; E: 40*; F: -6

O=C1Nc2cc(S(=O)(=O)N3CCCC3)ccc2N2CCCC12 (configuration not stated)
  A: -2; B: 2; C: ·; D: ·; E: ·; F: -17

C[C@@H]1CN([C@H](C)CO)C(=O)c2cc(NS(=O)(=O)c3cn(C)cn3)ccc2O[C@@H](C)CCCCO[C@@H]1CN(C)C(=O)c1ccccc1
  A: 0; B: 1; C: 39; D: -12; E: -3; F: 4

Cc1cc(C(F)F)n2ncc(C(=O)NCc3ccccc3F)c2n1
  A: ·; B: ·; C: 2; D: -5; E: 0; F: ·

Cc1cc(C(F)F)n2ncc(C(=O)NCc3ccc(F)cc3)c2n1
  A: ·; B: ·; C: 44*; D: -1; E: 2; F: ·

CCN(CC(=O)NCc1cccs1)C(=O)CCCOc1ccccc1
  A: -4; B: -1; C: 2; D: -16; E: -76; F: 4

Looked up above:
Entry of `Clc1ccc2c(c1)-c1ccccc1C1=NCCN12` in CASP6 VEID inh: -5
Entry of `O=C(O)C1Cc2c([nH]c3ccccc23)C(c2ccc3c(c2)OCO3)N1` (configuration not stated) in Yeast UUG start: -15
Entry of `O=C1Nc2cc(S(=O)(=O)N3CCCC3)ccc2N2CCCC12` (configuration not stated) in RAD54 inh: -2

Continuation:
Assay codes: A = RAD54 inh; B = PglD inh; C = INS-1E GSIS act; D = RAD52 anneal inh; E = CASP6 VEID inh; F = Yeast UUG start
C[C@@H]1CN([C@H](C)CO)C(=O)Cc2cc(NS(C)(=O)=O)ccc2O[C@H]1CN(C)S(C)(=O)=O
  A: 1; B: -2; C: 9; D: -7; E: 3; F: -10

CCc1ccc(NC(=O)COC(=O)/C(=C/c2ccccc2OC)c2ccccc2)cc1
  A: ·; B: ·; C: -8; D: -7; E: -1; F: ·

CC(=O)Nc1ccccc1OC(C)C(=O)N1CC(C)CC(C)C1 (configuration not stated)
  A: ·; B: 5; C: 16; D: -7; E: -2; F: 7

COc1ccc(O)c(-c2cc(C(F)(F)C(F)F)nc(-c3ccccc3)n2)c1
  A: 5; B: -3; C: ·; D: ·; E: ·; F: -14

Oc1ccccc1-c1cc(C(F)(F)C(F)F)nc(-c2ccccc2)n1
  A: -1; B: -3; C: 112*; D: ·; E: ·; F: -10

C[C@@H]1CN([C@H](C)CO)C(=O)Cc2cc(NC(=O)Nc3cccc4ccccc34)ccc2O[C@H]1CN(C)S(=O)(=O)c1cccs1
  A: -5; B: -1; C: -3; D: ·; E: ·; F: 3

O=C(ONC(=O)C1CCCCC1C(=O)NOC(=O)c1ccccc1)c1ccccc1 (configuration not stated)
  A: 0; B: -7; C: -18; D: -12; E: 40*; F: -17

COc1cc2c(cc1OC)/C(=C/C(=O)c1ccccc1F)NCC2
  A: 17; B: -10; C: 35; D: 5; E: 15; F: -10

COc1cc2c(cc1OC)/C(=C/C(=O)c1ccc(OC)c([N+](=O)[O-])c1)NCC2
  A: -3; B: 3; C: 51*; D: -13; E: 4; F: -9

COc1cc2c(cc1OC)/C(=C/C(=O)c1ccc(F)cc1)NCC2
  A: 11; B: -2; C: 2; D: 8; E: 44*; F: -8

One compound at a time, from the list above. Screens in order: RAD54 inh	PglD inh	INS-1E GSIS act	RAD52 anneal inh	CASP6 VEID inh	Yeast UUG start
`COc1cc2c(cc1OC)/C(=C/C(=O)c1ccc(OC)c([N+](=O)[O-])c1)NCC2` is entered as -3	3	51*	-13	4	-9
`CC(=O)Nc1ccccc1OC(C)C(=O)N1CC(C)CC(C)C1` (configuration not stated) is entered as ·	5	16	-7	-2	7

(listing goes on)
Assay codes: A = RAD54 inh; B = PglD inh; C = INS-1E GSIS act; D = RAD52 anneal inh; E = CASP6 VEID inh; F = Yeast UUG start
CCOC(=O)[C@H]1[C@H]2COc3ccc(OC)cc3[C@@H]2N2C(=O)CN(Cc3ccc(Cl)cc3)C(=O)[C@@]12C
  A: 4; B: -1; C: -52; D: -21; E: 1; F: -18

NC(=O)c1ncn([C@@H]2O[C@H](C(=O)N[C@H](Cc3ccccc3)C(=O)O)[C@@H](O)[C@H]2O)n1
  A: ·; B: ·; C: 44*; D: -1; E: -4; F: ·

CN(C(=O)[C@H]1O[C@@H](n2cnc(C(N)=O)n2)[C@H](O)[C@@H]1O)c1ccccc1
  A: ·; B: ·; C: 187*; D: -6; E: -2; F: ·

NC(=O)c1ncn([C@@H]2O[C@H](C(=O)N3CCN(CC(=O)Nc4ccccn4)CC3)[C@@H](O)[C@H]2O)n1
  A: ·; B: ·; C: 13; D: -3; E: -3; F: ·

NC(=O)c1ncn([C@@H]2O[C@H](C(=O)N[C@H](Cc3c[nH]c4ccccc34)C(=O)O)[C@@H](O)[C@H]2O)n1
  A: ·; B: ·; C: ·; D: -10; E: 2; F: ·

CC(C)CC(NC(=O)c1ccc(Cl)cc1)C(=O)OCC(=O)c1ccc2c(c1)NC(=O)CO2 (configuration not stated)
  A: 1; B: -3; C: 461*; D: ·; E: ·; F: 4

O=C(/C=C/c1ccco1)Nc1scc(-c2ccccc2)c1C(=O)O
  A: 1; B: 8; C: 12; D: -22; E: 44*; F: 13

OC(c1ccccc1)(c1ccccc1)C1CCN(CCCOc2ccc(C(F)(F)F)cc2)CC1
  A: ·; B: ·; C: 654*; D: 17; E: 0; F: ·

NC(=O)c1cc2cc(Cl)ccc2o/c1=N/NC(=O)c1cccs1
  A: -5; B: 0; C: 43*; D: -9; E: 2; F: -17

COc1ccc2c(c1OC)C(=O)OC2Nc1ccc(S(=O)(=O)N=C(N)N)cc1 (configuration not stated)
  A: ·; B: ·; C: 2; D: -9; E: 9; F: ·

Carrying on.
Assay codes: A = RAD54 inh; B = PglD inh; C = INS-1E GSIS act; D = RAD52 anneal inh; E = CASP6 VEID inh; F = Yeast UUG start
C[C@@H]1CN([C@H](C)CO)C(=O)c2cc(NC(=O)Cn3cnnn3)ccc2O[C@@H]1CN(C)S(=O)(=O)c1ccc(F)cc1
  A: -3; B: 2; C: 3; D: -26; E: 1; F: -6

COc1ccc(NC(=O)N(C)C[C@@H]2Oc3ccc(NC(=O)CCN4CCOCC4)cc3CC(=O)N([C@H](C)CO)C[C@H]2C)cc1
  A: 0; B: -2; C: 14; D: -7; E: -1; F: -1

CNC[C@@H]1Oc2ccc(NC(=O)NC(C)C)cc2CC(=O)N([C@@H](C)CO)C[C@H]1C
  A: 7; B: 4; C: 7; D: -5; E: 1; F: -2

COc1cccc(OCc2nc3c4cnn(-c5ccccc5)c4ncn3n2)c1
  A: 10; B: -1; C: 57*; D: ·; E: ·; F: -15

COc1cccc(OCCN2CCN(c3ncnc4c3cnn4-c3ccccc3)CC2)c1
  A: -1; B: -3; C: ·; D: ·; E: ·; F: 2
